We go through one compound from BindingDB's records for doi:10.3109/14756366.2011.643304 (Umeå University, 2013).

Protein sequences, listed by entry. Tags and fused reporters are not part of them. Residues count along the entry.
UniProt P97612, 30-579: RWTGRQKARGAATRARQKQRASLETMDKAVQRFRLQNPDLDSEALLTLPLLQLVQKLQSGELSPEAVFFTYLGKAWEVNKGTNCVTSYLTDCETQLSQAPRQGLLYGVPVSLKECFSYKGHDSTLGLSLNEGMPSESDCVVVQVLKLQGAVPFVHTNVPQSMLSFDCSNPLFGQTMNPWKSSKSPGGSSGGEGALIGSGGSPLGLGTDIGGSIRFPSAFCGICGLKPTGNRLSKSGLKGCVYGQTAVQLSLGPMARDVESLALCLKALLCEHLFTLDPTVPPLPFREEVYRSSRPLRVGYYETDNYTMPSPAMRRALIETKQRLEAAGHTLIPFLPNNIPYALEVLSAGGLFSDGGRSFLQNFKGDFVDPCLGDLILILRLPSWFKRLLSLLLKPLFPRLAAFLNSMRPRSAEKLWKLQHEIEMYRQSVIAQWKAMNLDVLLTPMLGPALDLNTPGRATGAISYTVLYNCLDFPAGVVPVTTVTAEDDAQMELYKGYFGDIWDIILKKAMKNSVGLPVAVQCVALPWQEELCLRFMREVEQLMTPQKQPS

The target in this assay is T1, Fatty-acid amide hydrolase 1 [30-579] (Rattus norvegicus, UniProt P97612).
T1 construct: 30-579
Description: FAAH Assay. Conditions: pH 7; 4 °C.

pIC50: −log10 of the molar value.

Regarding `Cc1cccnc1NC(=O)CNC(=O)C(C)c1ccc(CC(C)C)cc1` (stereo unspecified) [ibu-am14 (9)], the pIC50 was 5.44.
